This is an account of results in patent publication US7319101B2, “COMT inhibitors for the treatment of depression and impaired cognition” (Hoffmann-La Roche Inc., priority 2003, dated 2008).

The test deals with T1, catechol-O-methyltransferase (COMT) obtained from rat liver (Rattus norvegicus, UniProt P22734).
T1 construct: from tissue; host or cells: rat liver homogenate
T1 sequence (P22734 1-264): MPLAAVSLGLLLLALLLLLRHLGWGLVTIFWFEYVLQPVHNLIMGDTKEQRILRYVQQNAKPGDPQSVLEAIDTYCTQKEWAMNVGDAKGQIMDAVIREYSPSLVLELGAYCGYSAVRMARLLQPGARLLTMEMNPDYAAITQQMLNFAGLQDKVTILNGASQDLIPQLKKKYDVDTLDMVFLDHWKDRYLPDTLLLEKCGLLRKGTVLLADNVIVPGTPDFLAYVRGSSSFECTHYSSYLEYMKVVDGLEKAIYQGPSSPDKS
Description: COMT inhibition, radiochemical assay with rat liver homogenate (Zürcher et al.). It is filed as biochemical. The note with it: rat liver tissue extract; substrate benzene-1,2-diol 2.5 mM, [3H]SAM 183 μM; 15 min preincubation at 37° C., pH 7.6. Here is the method:
As mentioned earlier, the compounds of formula I inhibit the enzyme COMT. The inhibitory activity can be determined in vitro with COMT obtained from rat liver. Rat liver homogenate is incubated in the presence of a suitable substrate as described by Zürcher et al. in J. Neurochem. 1982, 38, 191-195 and the COMT activity is measured.
The IC50 values (concentration of the inhibitor at which 50% activity of the enzyme is observed) were determined in a radiochemical assay described by Zürcher et al. (see above) and are listed in Table 1.
IC50 values were determined as follows: The inhibitors were dissolved in Me2SO as 1.2 mM stock solution and further diluted with Me2SO. The reactions were performed in standard polypropylene vials. 25 μl of the inhibitor in varying concentrations from 10^−4 to 10^−9 mol L^−1 were mixed with 215 μl freshly prepared buffer-substrate mixture consisting of 170 μl potassium phosphate buffer (0.1 mol L^−1, pH 7.6), 10 μl MgCl2, (0.1 mol L^−1), 10 μl dithiothreitol (0.065 mol L^−1) and 25 μl of tissue extract. The enzyme preparations were preincubated for 15 min at 37° C. […]
The samples were counted in a Beckmann LS 6000 TA scintillation counter.

As to `Nc1ncnc2c1ncn2[C@@H]1O[C@H](/C=C/CNC(=O)c2cc(-c3nc4ccccc4s3)cc(O)c2O)C(O)C1O` (stereo in doubt) [Example 11, N1-{(E)-3-[(3aR,4R,6R,6aR)-5-(6-amino-9H-purin-9-yl)-3,4-dihydroxytetrahydrofuran-2-yl]prop-2-enyl}-5-benzothiazol-2-yl-2,3-dihydroxy-benzamide], the midpoint of inhibition, the IC50, lay at 29 nM.

`CC(C)c1cc(O)c(O)c(C(=O)NC/C=C/[C@H]2O[C@@H](n3cnc4c(N)ncnc43)C(O)C2O)c1` (stereo in doubt) [Example 17, N1-{(E)-3-[(3aR,4R,6R,6aR)-5-(6-amino-9H-purin-9-yl)-3,4-dihydroxytetrahydrofuran-2-yl]prop-2-enyl}-5-isopropyl-2,3-dihydroxy-benzamide] registered a concentration for half-maximal inhibition (IC50) of 1370 nM.

For orientation: IC50 means the concentration at which inhibition is half-maximal. The low end stands for higher potency, the high end for lower potency.
